Counter-ions that a name gives are not always drawn.
Tests used:
PI 3-kinase alpha = PI 3-kinase alpha (Homo sapiens (Human), UniProt P42336); conditions: read-out: Assay A PI3Kα IC50
PI 3-kinase beta = PI 3-kinase beta (Homo sapiens (Human), UniProt P42338); conditions: read-out: Assay B PI3Kβ IC50
[1] = target: PI 3-kinase alpha (Rat-1 pBABEpuro Myr-HA-hp110 alpha cells) (Homo sapiens (Human), UniProt P42336); experiment: cell-based; conditions: Assay H PI3Kα IC50
[2] = target: PI 3-kinase beta (Rat-1 pBABEpuro Myr-HA-hp110 beta cells) (Homo sapiens (Human), UniProt P42338); experiment: cell-based; conditions: Assay I PI3Kβ IC50

The chains behind the UniProt entries cited, without tags or fusion partners. Where a name states a change or a piece, a line headed by the entry shows the natural chain unless it says otherwise.
UniProt P42336, whole entry, looked up: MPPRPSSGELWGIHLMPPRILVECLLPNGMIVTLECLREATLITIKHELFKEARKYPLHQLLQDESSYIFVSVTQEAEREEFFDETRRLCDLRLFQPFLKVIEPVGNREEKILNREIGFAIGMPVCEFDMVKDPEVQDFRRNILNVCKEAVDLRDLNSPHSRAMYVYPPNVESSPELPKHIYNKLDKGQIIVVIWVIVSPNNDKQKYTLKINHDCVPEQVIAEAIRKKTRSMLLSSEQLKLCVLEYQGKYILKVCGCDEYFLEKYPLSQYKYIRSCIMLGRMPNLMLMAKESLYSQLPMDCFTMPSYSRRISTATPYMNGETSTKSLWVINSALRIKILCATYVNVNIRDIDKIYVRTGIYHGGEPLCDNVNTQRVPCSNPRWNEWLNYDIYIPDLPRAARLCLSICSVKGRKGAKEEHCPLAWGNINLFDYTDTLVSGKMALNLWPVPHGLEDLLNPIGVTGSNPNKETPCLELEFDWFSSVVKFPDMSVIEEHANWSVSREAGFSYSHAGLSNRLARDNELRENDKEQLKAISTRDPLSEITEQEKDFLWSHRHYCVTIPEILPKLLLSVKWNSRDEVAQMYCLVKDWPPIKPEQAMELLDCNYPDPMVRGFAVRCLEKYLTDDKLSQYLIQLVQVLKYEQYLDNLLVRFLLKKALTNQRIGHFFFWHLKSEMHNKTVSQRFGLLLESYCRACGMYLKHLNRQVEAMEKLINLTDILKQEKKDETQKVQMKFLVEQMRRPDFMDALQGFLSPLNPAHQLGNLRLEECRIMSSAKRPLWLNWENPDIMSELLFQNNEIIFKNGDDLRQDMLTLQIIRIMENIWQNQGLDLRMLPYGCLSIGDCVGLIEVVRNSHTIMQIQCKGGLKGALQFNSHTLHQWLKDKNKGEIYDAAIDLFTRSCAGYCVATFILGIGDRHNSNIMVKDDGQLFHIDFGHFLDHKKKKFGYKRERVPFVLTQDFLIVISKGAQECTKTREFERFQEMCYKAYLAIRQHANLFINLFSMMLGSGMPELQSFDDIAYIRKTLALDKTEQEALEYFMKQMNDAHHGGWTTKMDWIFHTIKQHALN
UniProt P42338: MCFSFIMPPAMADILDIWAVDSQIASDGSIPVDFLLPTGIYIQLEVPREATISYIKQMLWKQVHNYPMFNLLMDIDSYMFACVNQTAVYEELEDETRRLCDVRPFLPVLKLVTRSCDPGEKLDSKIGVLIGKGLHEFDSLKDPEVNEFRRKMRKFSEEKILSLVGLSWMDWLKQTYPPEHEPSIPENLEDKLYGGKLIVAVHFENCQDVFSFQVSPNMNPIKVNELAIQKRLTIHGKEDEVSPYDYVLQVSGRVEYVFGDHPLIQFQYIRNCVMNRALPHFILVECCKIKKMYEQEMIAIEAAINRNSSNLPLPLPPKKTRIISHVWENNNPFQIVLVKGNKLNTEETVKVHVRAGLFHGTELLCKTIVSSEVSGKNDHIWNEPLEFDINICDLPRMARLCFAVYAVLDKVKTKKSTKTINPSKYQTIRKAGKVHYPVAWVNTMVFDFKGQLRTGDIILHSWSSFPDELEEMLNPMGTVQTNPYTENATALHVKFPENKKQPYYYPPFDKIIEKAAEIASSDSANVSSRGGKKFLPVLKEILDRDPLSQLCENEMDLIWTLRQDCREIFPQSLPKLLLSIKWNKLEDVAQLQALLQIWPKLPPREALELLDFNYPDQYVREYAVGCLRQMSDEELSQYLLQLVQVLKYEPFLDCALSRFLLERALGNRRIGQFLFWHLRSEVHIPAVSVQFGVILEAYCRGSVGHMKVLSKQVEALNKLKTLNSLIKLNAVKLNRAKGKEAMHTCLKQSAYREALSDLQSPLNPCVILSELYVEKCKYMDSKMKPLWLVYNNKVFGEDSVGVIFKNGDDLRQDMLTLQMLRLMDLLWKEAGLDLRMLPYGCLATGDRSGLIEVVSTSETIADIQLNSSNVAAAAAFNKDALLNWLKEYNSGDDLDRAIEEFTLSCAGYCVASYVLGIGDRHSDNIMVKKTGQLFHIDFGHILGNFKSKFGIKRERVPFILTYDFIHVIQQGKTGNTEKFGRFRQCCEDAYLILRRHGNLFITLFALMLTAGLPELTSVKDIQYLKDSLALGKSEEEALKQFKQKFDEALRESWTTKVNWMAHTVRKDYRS

Cc1ccc(S(=O)(=O)NCCC(C)(C)O)cc1-c1cnc(N)c(-c2cnn(C)c2)c1 [Example 2, 3-(6-Amino-5-(1-methyl-1H-pyrazol-4-yl)pyridin-3-yl)-N-(3-hydroxy-3-methylbutyl)-4-methylbenzenesulfonamide]
IC50 (PI 3-kinase alpha): 530 nM | IC50 (PI 3-kinase beta): 3150 nM | IC50 [1]: 7750 nM | IC50 [2]: 9190 nM

Cc1ccc(S(=O)(=O)NCCC(C)(C)O)cc1-c1cnc(N)c(-c2cnn(CC(F)(F)F)c2)c1 [Example 3, 3-(6-Amino-5-(1-(2,2,2-trifluoroethyl)-1H-pyrazol-4-yl)pyridin-3-yl)-N-(3-hydroxy-3-methylbutyl)-4-methylbenzenesulfonamide]
IC50 (PI 3-kinase alpha): 770 nM | IC50 (PI 3-kinase beta): 2040 nM | IC50 [1]: 1910 nM | IC50 [2]: 3030 nM

Cc1ncc(-c2cc(-c3cc(S(=O)(=O)NCCC(C)(C)O)ccc3C)cnc2N)s1 [Example 4, 3-(6-Amino-5-(2-methylthiazol-5-yl)pyridin-3-yl)-N-(3-hydroxy-3-methylbutyl)-4-methylbenzenesulfonamide]
IC50 (PI 3-kinase alpha): 190 nM | IC50 (PI 3-kinase beta): 1870 nM | IC50 [1]: 1250 nM | IC50 [2]: 2310 nM

Cc1ccc(S(=O)(=O)N[C@H]2CC[C@H](O)CC2)cc1-c1cnc(N)c(-c2cnn(CC(F)(F)F)c2)c1 [Example 4.2, trans 3-(6-Amino-5-(1-(2,2,2-trifluoroethyl)-1H-pyrazol-4-yl)pyridin-3-yl)-N-(4-hydroxycyclohexyl)-4-methyl-benzenesulfonamide]
IC50 (PI 3-kinase alpha): 210 nM | IC50 (PI 3-kinase beta): 900 nM | IC50 [1]: > 10000 nM | IC50 [2]: 4890 nM

Cc1ccc(S(=O)(=O)NCC(C)(C)O)cc1-c1cnc(N)c(-c2cnn(C)n2)c1 [Example 4.4, 3-(6-amino-5-(2-methyl-2H-1,2,3-triazol-4-yl)pyridin-3-yl)-N-(2-hydroxy-2-methylpropyl)-4-methylbenzenesulfonamide hydrochloride]
IC50 (PI 3-kinase alpha): 560 nM | IC50 (PI 3-kinase beta): 2950 nM | IC50 [1]: > 10000 nM | IC50 [2]: > 10000 nM

Cc1ccc(S(=O)(=O)N[C@H]2CC[C@H](O)CC2)cc1-c1cnc(N)c(-c2cnn(C)n2)c1 [Example 4.5, trans 3-(6-Amino-5-(2-methyl-2H-1,2,3-triazol-4-yl)pyridin-3-yl)-N-(4-hydroxycyclohexyl)-4-methylbenzene sulfonamide hydrochloride]
IC50 (PI 3-kinase alpha): 250 nM | IC50 (PI 3-kinase beta): 2800 nM | IC50 [1]: > 10000 nM | IC50 [2]: > 10000 nM

CCc1cc(-c2cc(-c3cc(S(=O)(=O)NCC(C)(C)O)ccc3C)cnc2N)on1 [Example 4.6, 3-(6-Amino-5-(3-ethylisoxazol-5-yl)pyridin-3-yl)-N-(2-hydroxy-2-methylpropyl)-4-methyl-benzenesulfonamide hydrochloride]
IC50 (PI 3-kinase alpha): 520 nM | IC50 (PI 3-kinase beta): 4100 nM | IC50 [1]: 6230 nM | IC50 [2]: > 3000 nM

Cc1cc(-c2cc(-c3cc(S(=O)(=O)NC[C@H]4CCOC4)ccc3C)cnc2N)on1 [Example 4.7, (R)-3-(6-Amino-5-(3-methylisoxazol-5-yl)pyridin-3-yl)-4-methyl-N-((tetra hydrofuran-3-yl)methyl)benzene-sulfonamide hydrochloride]
IC50 (PI 3-kinase alpha): 300 nM | IC50 (PI 3-kinase beta): 4700 nM | IC50 [1]: 6400 nM | IC50 [2]: > 3000 nM

Cc1cc(-c2cc(-c3cc(S(=O)(=O)NCC(C)(C)O)ccc3C)cnc2N)sn1 [Example 4.8, 3-(6-Amino-5-(3-methylisothiazol-5-yl)pyridin-3-yl)-N-(2-hydroxy-2-methylpropyl)-4-methyl-benzenesulfonamide hydrochloride]
IC50 (PI 3-kinase alpha): 570 nM | IC50 (PI 3-kinase beta): 4650 nM | IC50 [1]: > 10000 nM | IC50 [2]: 4470 nM

Cc1noc(-c2cc(-c3cc(S(=O)(=O)NCC4(C)COC4)ccc3C)cnc2N)n1 [Example 4.9, 3-(6-Amino-5-(3-methyl-1,2,4-oxadiazol-5-yl)pyridin-3-yl)-4-methyl-N-((3-methyloxetan-3-yl)methyl)benzene-sulfonamide]
IC50 (PI 3-kinase alpha): 620 nM | IC50 (PI 3-kinase beta): 4500 nM | IC50 [1]: > 10000 nM | IC50 [2]: > 10000 nM

Cc1noc(-c2cc(-c3cc(S(=O)(=O)NCCC(C)(C)O)ccc3C)cnc2N)n1 [Example 5, 3-[6-Amino-5-(3-methyl-[1,2,4]oxadiazol-5-yl)-pyridin-3-yl]-N-(3-hydroxy-3-methyl-butyl)-4-methyl-benzenesulfonamide hydrochloride]
IC50 (PI 3-kinase alpha): 80 nM | IC50 (PI 3-kinase beta): 1150 nM | IC50 [1]: 740 nM | IC50 [2]: 1440 nM

Cc1ccc(S(=O)(=O)NCC(C)(C)O)cc1-c1cnc(N)c(-c2nc(C(C)C)no2)c1 [Example 5.1, 3-(6-Amino-5-(3-isopropyl-1,2,4-oxadiazol-5-yl)pyridin-3-yl)-N-(2-hydroxy-2-methylpropyl)-4-methylbenzenesulfonamide hydrochloride]
IC50 (PI 3-kinase alpha): 1250 nM | IC50 (PI 3-kinase beta): 6450 nM | IC50 [1]: 8940 nM | IC50 [2]: > 3000 nM

Cc1cnc(-c2cc(-c3cc(S(=O)(=O)N[C@H]4CC[C@H](O)CC4)ccc3C)cnc2N)o1 [Example 5.2, trans 3-(6-Amino-5-(5-methyloxazol-2-yl)pyridin-3-yl)-N-(4-hydroxycyclohexyl)-4-methylbenzene sulfonamide hydrochloride]
IC50 (PI 3-kinase alpha): 190 nM | IC50 (PI 3-kinase beta): 1300 nM | IC50 [1]: 630 nM | IC50 [2]: > 3000 nM

CCc1noc(-c2cc(-c3cc(S(=O)(=O)NCC(C)(C)O)ccc3C)cnc2N)n1 [Example 5.3, 3-(6-Amino-5-(3-ethyl-1,2,4-oxadiazol-5-yl)pyridin-3-yl)-N-(2-hydroxy-2-methylpropyl)-4-methylbenzenesulfon-amide hydrochloride]
IC50 (PI 3-kinase alpha): 1400 nM | IC50 (PI 3-kinase beta): 5000 nM | IC50 [1]: 7560 nM | IC50 [2]: > 10000 nM

Cc1noc(-c2cc(-c3cc(S(=O)(=O)N[C@H]4C[C@@H](O)C4)ccc3C)cnc2N)n1 [Example 5.5a, 3-(6-Amino-5-(3-methyl-1,2,4-oxadiazol-5-yl)pyridin-3-yl)-N-((1s,3s)-3-hydroxycyclobutyl)-4-methylbenzenesulfonamide]
IC50 (PI 3-kinase alpha): 760 nM | IC50 (PI 3-kinase beta): 2900 nM | IC50 [1]: > 10000 nM | IC50 [2]: 2180 nM

Cc1ncc(-c2cc(-c3cc(S(=O)(=O)NCC(C)(C)O)ccc3C)cnc2N)o1 [Example 6, 3-(6-Amino-5-(2-methyloxazol-5-yl)pyridin-3-yl)-N-(2-hydroxy-2-methylpropyl)-4-methylbenzenesulfonamide]
IC50 (PI 3-kinase alpha): 400 nM | IC50 (PI 3-kinase beta): 2300 nM | IC50 [1]: 7840 nM | IC50 [2]: 4670 nM

Cc1ncc(-c2cc(-c3cc(S(=O)(=O)NCCCO)ccc3C)cnc2N)s1 [Example 9, 3-[6-Amino-5-(2-methyl-thiazol-5-yl)-pyridin-3-yl]-N-(3-hydroxy-propyl)-4-methyl-benzenesulfonamide]
IC50 (PI 3-kinase alpha): 300 nM | IC50 (PI 3-kinase beta): > 9100 nM | IC50 [1]: 5190 nM | IC50 [2]: 5120 nM

Cc1noc(-c2cc(-c3cc(S(=O)(=O)NOCC(C)(C)O)ccc3C)cnc2N)n1 [Example 11, 3-[6-Amino-5-(3-methyl-[1,2,4]oxadiazol-5-yl)-pyridin-3-yl]-N-(2-hydroxy-2-methyl-propoxy)-4-methyl-benzenesulfonamide, hydrochloride salt]
IC50 (PI 3-kinase alpha): 70 nM | IC50 (PI 3-kinase beta): 290 nM | IC50 [1]: 150 nM | IC50 [2]: 720 nM

Cc1noc(-c2cc(-c3cc(S(=O)(=O)N[C@H]4CC[C@H](O)CC4)ccc3C)cnc2N)n1 [Example 12, trans 3-[6-Amino-5-(3-methyl-[1,2,4]oxadiazol-5-yl)-pyridin-3-yl]-N-(4-hydroxy-cyclohexyl)-4-methyl-benzenesulfonamide, hydrochloride salt]
IC50 (PI 3-kinase alpha): 160 nM | IC50 (PI 3-kinase beta): 230 nM | IC50 [1]: 1460 nM | IC50 [2]: 3940 nM

From patent US10112926B2 (priority 2014, dated 2018)
